Among the data in the NIST ThermoML archive (doi:10.1016/j.jct.2018.02.014) are activity coefficient values, retold here.

The structures appear in SMILES notation. ± gives the expanded uncertainty stated by the source.

This data set in a line: activity coefficient (dimensionless); of the first substance listed, at infinite dilution; xn = mol fraction of the nth substance listed. The note with it: 101.33 kPa, Liquid, Chromatography, x1 = 0.

`CCCCOCCCC` [dibutyl ether] + CC[N+]1(C)CCOCC1.N#CN=C=[N-]: the activity coefficient by setting is: (328.15 K) 358 ± 25; (338.15 K) 345 ± 24; (348.15 K) 333 ± 23; (358.15 K) 322 ± 22; (368.15 K) 312 ± 21.
